System: all cells tested
Conditions: concentrations used stated to be below LD50

CN(CCOc1ccc(CC2SC(=O)NC2=O)cc1)c1ccccn1 (stereo not shown) [rosiglitazone]
LD50: > 20 µM
